Source: PubChem BioAssay
Sampled rows, rich in hits. Any-hit rate of the full collection: about 4.2%.
UUG fidelity = yeast start codon fidelity modulation; activity score, % at 18.7 µM; actives 0.13% (n = 350,000); S. cerevisiae UUG-firefly luciferase reporter, luminescence/redox ratio; AID 602363;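 active means replicate mean at a twofold rise or more, about +100% in these data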;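 further: firefly luciferase made from a UUG start codon reports start codon fidelity; reporter light over untreated wells divided by growth signal over untreated wells; some hits fall short of that in this replicate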
MC4R barr agon = human MC4R agonism via beta-arrestin. P32245. U2OS MC4R beta-arrestin complementation, luminescence; percent of melanotan II response, DMSO zero. activation, % at 8.9 µM. actives 0.98% (n = 360,000). AID 540308;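 active = activation above a per-plate cutoff, the mean activation of sample wells on that plate plus 3 SD, cut at about 8% in these data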
ALR inh = inhibitors of human ALR sulfhydryl oxidase, primary screen, biochemical, H2O2 detection, HRP-luminol luminescence, single point. purified ALR, DTT oxidation. inhibition, % (concentration not given with the values). 290,000 compounds, 3.8% hits. AID 485317, 2010;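 active = mean and each replicate at 75% or more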;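 note: stock transfer was 7.5 nL into about 7.5 µL; 0% = neutral wells and 100% = wells with inactivated enzyme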
HDAC3 inh = human HDAC3 inhibition | recombinant HDAC3, fluorogenic peptide/trypsin coupled, fluorescence | inhibition, % at 8.3 µM | actives 0.15% (n = 320,000); in the data active = inhibition above about 26%, passing the limit was not always enough; inconclusive = no clear call, values can overlap the other calls
NALP1 yeast inh = inhibitors of NALP1 inflammasome in yeast; S. cerevisiae NALP1/ASC/caspase-1 growth, X-gal OD620, 72 h; inhibition, % at 10 µM; actives 0.61% (n = 280,000); in the data active = inhibition mostly above about 24%, no sharp cut-off; inactive = mostly below about 32%
MC4R antag cAMP = blocks human MC4R cAMP signaling | AID 540295 | P32245 | MC4R-expressing cells, MTII-stimulated cAMP, LANCE TR-FRET | inhibition, % at 6.5 µM | actives 0.48% (n = 360,000);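 active = inhibition above its plate's cutoff, the mean of tested wells on that plate plus 3 SD, cut at about 29% in these data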;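 note: 0% = Melanotan II alone and 100% = Melanotan II plus saturating MCL0020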
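Test system: U2OS cells stably expressing human melanocortin 4 receptor (MC4R); also added: Melanotan II challenge; compound: 6.5 µM single dose; timing: 30-min compound preincubation, 1-h Melanotan II challenge, 1-h detection, room temperature; signal: Eu-cAMP/anti-cAMP TR-FRET, emission 671 nm; repeats: one well per compound, no replicates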
An asterisk follows results filed as active; ? = inconclusive; . = no result.

No. | SMILES | MC4R barr agon | MC4R antag cAMP | UUG fidelity
1 | COc1ccc2cc(C(=O)N3CCCC(Nc4ccc(F)cc4)C3)n(C)c2c1 (stereo not given) | 0 | 4 | 17
2 | O=C1CCC(C(=O)N2CCCC(Nc3ccc(F)cc3)C2)=NN1 (stereo not given) | -2 | 2 | -24
3 | COC(=O)C1C(O)=C(C=Nc2ccc(N)cc2)C(=O)CC1(C)C (stereo not given) | -3 | 5 | -7
4 | COC(=O)C1C(O)=C(C=Nc2ccccc2)C(=O)CC1(C)C (stereo not given) | -2 | 4 | .
5 | C[C@@H]1CCCCO[C@H](CN(C)C(=O)CCC(F)(F)F)[C@H](C)CN([C@@H](C)CO)C(=O)c2cc(NC(=O)c3ccccc3)ccc2O1 | . | . | 11
6 | COc1ccc(N2C(=O)C(Cl)=C(Nc3ccc(OC)cc3OC)C2=O)cc1 | 13* | -3 | -11
7 | O=C(Nc1ccc(Cl)cc1)N[C@@H]1CC[C@H](CCn2cc(Cc3ccccc3)nn2)O[C@H]1CO | . | . | -1
8 | Cc1noc(C)c1NC(=O)N(C)C[C@H]1OCCCC[C@H](C)Oc2ccc(NC(=O)NC(C)C)cc2C(=O)N([C@@H](C)CO)C[C@@H]1C | . | . | 22
9 | O=C(NCc1ccco1)c1cc2sccc2n1Cc1ccccc1 | 1 | -3 | 3
10 | O=C(NCCc1ccccc1)c1cc2sccc2n1Cc1ccccc1 | 2 | 2 | -17

No. | HDAC3 inh | NALP1 yeast inh | ALR inh
1 | 2 | 35* | 25
2 | 6 | 9 | 82*
3 | 0 | 3 | 26
4 | 8 | -25 | 100*
5 | . | . | .
6 | 0 | -1 | -13
7 | . | . | .
8 | . | . | .
9 | 1 | 0 | 93*
10 | 10 | 2 | -2

Single records, as listed above. Order of screens: MC4R barr agon | MC4R antag cAMP | UUG fidelity | HDAC3 inh | NALP1 yeast inh | ALR inh
COC(=O)C1C(O)=C(C=Nc2ccccc2)C(=O)CC1(C)C (stereo not given) in the list: -2 | 4 | . | 8 | -25 | 100*
O=C1CCC(C(=O)N2CCCC(Nc3ccc(F)cc3)C2)=NN1 (stereo not given) in the list: -2 | 2 | -24 | 6 | 9 | 82*
O=C(NCCc1ccccc1)c1cc2sccc2n1Cc1ccccc1 in the list: 2 | 2 | -17 | 10 | 2 | -2
O=C(NCc1ccco1)c1cc2sccc2n1Cc1ccccc1 in the list: 1 | -3 | 3 | 1 | 0 | 93*

(continued)
No. | SMILES | MC4R barr agon | MC4R antag cAMP | UUG fidelity
11 | O=C(O)c1ccc(-n2c(-c3cc(-c4ccco4)[nH]n3)n[nH]c2=S)cc1 | -1 | 6 | -16
12 | COc1ccccc1-c1n[nH]c(=S)n1Cc1ccccc1 | -1 | -1 | -20
13 | CC(=O)c1ccc(-n2c(-c3cc(-c4ccco4)[nH]n3)n[nH]c2=S)cc1 | -2 | -1 | -13
14 | S=c1[nH]nc(-c2ccccc2)n1Cc1ccccc1 | 0 | 9 | -15
15 | S=c1[nH]nc(-c2ccco2)n1Cc1ccccc1 | -1 | 7 | -15
16 | Cc1cccc(-n2c(-c3ccc(Br)o3)n[nH]c2=S)c1 | -4 | 7 | .
17 | Cc1cccc(-n2c(-c3ccco3)n[nH]c2=S)c1 | -2 | 9 | -23
18 | C[C@H](CO)N1C[C@H](C)[C@@H](CN(C)C(=O)Nc2ccccc2)OCCCC[C@H](C)Oc2ccc(NS(C)(=O)=O)cc2C1=O | . | . | 20
19 | COc1ccc(NC(=O)N(C)C[C@@H]2Oc3ccc(NC(=O)C4CCCCC4)cc3C(=O)N([C@H](C)CO)C[C@@H]2C)cc1 | . | . | 22
20 | C[C@@H]1CCCCO[C@@H](CN(C)S(=O)(=O)c2cn(C)cn2)[C@@H](C)CN([C@@H](C)CO)C(=O)c2cc(NS(=O)(=O)c3ccccc3)ccc2O1 | . | . | 11

No. | HDAC3 inh | NALP1 yeast inh | ALR inh
11 | 10 | -17 | 96*
12 | -5 | 2 | 86*
13 | 8 | -19 | ?
14 | 0 | 4 | 49
15 | 6 | -7 | 92*
16 | 3 | . | 61
17 | -13 | 6 | 86*
18 | . | . | .
19 | . | . | .
20 | . | . | .

The results go on:
No. | SMILES | MC4R barr agon | MC4R antag cAMP | UUG fidelity
21 | COc1ccc(NC(=O)Nc2ccc3c(c2)C(=O)N([C@H](C)CO)C[C@@H](C)[C@H](CN(C)S(=O)(=O)c2ccc(F)cc2)OCCCC[C@@H](C)O3)cc1 | . | . | -19
22 | C[C@H](NC(=O)C[C@H]1CC[C@@H]2[C@H](COC[C@H](O)CN2C)O1)c1ccccc1 | . | . | -12
23 | CC(C)NC(=O)N[C@H]1CC[C@H](CC(=O)NCc2ccc(Oc3ccccc3)cc2)O[C@H]1CO | . | . | 23
24 | CO[C@H]1CN(C)C(=O)c2cc(NC(=O)c3cnccn3)ccc2OC[C@@H](C)N(C)C[C@H]1C | . | . | -2
25 | CCn1c(-c2ccco2)n[nH]c1=S | -2 | 19 | -25
26 | CCCCn1c(-c2ccco2)n[nH]c1=S | -3 | 0 | .
27 | CCOC(=O)N1CCC(NC(=O)CSCc2nc(-c3ccc(OC)c(OC)c3)oc2C)CC1 | 1 | 6 | 2
28 | COc1ccc(-c2nc(CSCC(=O)NC3CCN(Cc4ccccc4)CC3)c(C)o2)cc1OC | 0 | -1 | -25
29 | COc1ccc(-c2nc(CSCC(=O)NC3CC3)c(C)o2)cc1OC | -2 | -1 | .
30 | COc1ccc(-c2nc(CSCC(=O)NC3CCCC3)c(C)o2)cc1OC | 1 | 5 | .

No. | HDAC3 inh | NALP1 yeast inh | ALR inh
21 | . | . | .
22 | . | . | .
23 | . | . | .
24 | . | . | .
25 | -4 | -3 | 73
26 | -6 | 13 | 98*
27 | -2 | 0 | 98*
28 | 0 | -5 | 99*
29 | -6 | 13 | 99*
30 | -5 | 27 | 99*

More results:
No. | SMILES | MC4R barr agon | MC4R antag cAMP | UUG fidelity
31 | COc1ccc(-c2nc(CN3CCC(C(=O)NC4CCN(Cc5ccccc5)CC4)CC3)c(C)o2)cc1OC | -1 | 2 | -13
32 | CCS(=O)(=O)Nc1ccc2c(c1)C(=O)N(C)C[C@H](OC)[C@H](C)CN(C(=O)C1CCC1)[C@H](C)CO2 | . | . | 2
33 | C[C@@H]1CN([C@@H](C)CO)C(=O)c2cc(-c3ccc(C#N)cc3)cnc2O[C@H]1CN(C)C(=O)Nc1ccc(F)cc1 | . | . | 4
34 | COc1ccc(NC(=O)N(C)C[C@H]2Oc3ccc(NC(=O)C4CCCCC4)cc3CC(=O)N([C@@H](C)CO)C[C@H]2C)cc1 | . | . | -3
35 | O=C(NCc1n[nH]c(=S)n1-c1ccc(F)cc1)c1ccc(S(=O)(=O)N2CCCCC2)cc1 | -3 | 6 | -8
36 | COc1ccc(CC(=O)NCc2n[nH]c(=S)n2-c2cccc(C)c2)cc1 | -5 | 22 | .
37 | COc1ccc(-n2c(CNC(=O)c3ccc(S(=O)(=O)N4CCCC4)cc3)n[nH]c2=S)cc1 | -2 | -1 | -26
38 | COc1cccc(C(=O)NCc2n[nH]c(=S)n2-c2cccc(C)c2)c1 | -4 | 5 | -11
39 | COc1cccc(-n2c(CNC(=O)OC(C)(C)C)n[nH]c2=S)c1 | 0 | 7 | -24
40 | COc1ccc(CC(=O)NCc2n[nH]c(=S)n2C)cc1 | -3 | 3 | -2

No. | HDAC3 inh | NALP1 yeast inh | ALR inh
31 | -5 | 10 | 43
32 | . | . | .
33 | . | . | .
34 | . | . | .
35 | 2 | -14 | 25
36 | 3 | 1 | 34
37 | 3 | 14 | 91*
38 | 1 | -4 | 18
39 | 5 | -15 | 89*
40 | 7 | -4 | 97*

The results go on.
No. | SMILES | MC4R barr agon | MC4R antag cAMP | UUG fidelity
41 | O=C(NCc1n[nH]c(=S)n1-c1ccc(Br)cc1)c1ccc(S(=O)(=O)N2CCCC2)cc1 | -4 | -6 | -22
42 | C[C@@H]1CCCCO[C@@H](CN(C)Cc2ccc(C(=O)O)cc2)[C@H](C)CN([C@@H](C)CO)C(=O)c2cc(NS(=O)(=O)c3cn(C)cn3)ccc2O1 | . | . | -9
43 | CN(C)CC(=O)N[C@@H]1CC[C@@H](CCNC(=O)Nc2ccc(C(F)(F)F)cc2)O[C@@H]1CO | . | . | 23
44 | COc1ccc(-n2c(CNC(=O)c3cc(OC)c(OC)c(OC)c3)n[nH]c2=S)cc1 | -2 | 11 | -12
45 | COc1cc(OC)cc(C(=O)NCc2n[nH]c(=S)n2-c2ccccc2OC)c1 | -1 | 14 | -16
46 | CC(C)(C)OC(=O)NCCc1n[nH]c(=S)o1 | 4 | -3 | -8

No. | HDAC3 inh | NALP1 yeast inh | ALR inh
41 | 3 | -6 | 91*
42 | . | . | .
43 | . | . | .
44 | 5 | 5 | 93*
45 | 8 | -30 | 63
46 | -9 | 15 | 35
